# Antibody variant affinities, Ab-14 light chain, assay B

Target: peptide PDVDLGDISGINAS, taken from heptad repeat 2 (HR2) of SARS-CoV-2 spike.

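The starting antibody came from a phage panning campaign against this peptide. This is the validation round: designs drawn from the data on random variants, tested in the same kind of assay. Their group label is 14L_En_Gibbs (En: ensemble of fine-tuned language models; Gibbs: Gibbs sampling). The assay is AlphaSeq: two haploid yeast populations carry antibody and antigen on their surface. After mating in shaken culture at 30 °C for 16 h, diploids were selected and their barcode pairs sequenced. The ratio of observed to expected reads was calibrated, replicate by replicate, on BCL2-family standards whose Kd was known from biolayer interferometry. The assay was run in six technical replicates.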

Each scFv is VH, the linker GGGGSGGGGSGGGGS, VL, as in the parent Ab-14, and differs from it in the CDRs of the light chain only.
VH: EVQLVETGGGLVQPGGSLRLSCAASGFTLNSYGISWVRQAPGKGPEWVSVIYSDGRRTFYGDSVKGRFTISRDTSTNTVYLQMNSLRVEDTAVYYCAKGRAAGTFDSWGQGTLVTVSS
VL: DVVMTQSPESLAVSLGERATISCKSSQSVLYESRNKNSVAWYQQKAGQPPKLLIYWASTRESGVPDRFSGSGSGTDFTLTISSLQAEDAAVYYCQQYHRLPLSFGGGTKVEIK

Variants are written as CDR1, CDR2 and CDR3 of the light chain (limits as in the source). Parent: KSSQSVLYESRNKNSVA, WASTRES, QQYHRLPLS.
Values are log10 of the apparent Kd in nM; lower means stronger binding.
Replicates are averaged; those with no signal do not enter the mean.
Where no diploid with the target was found in that replicate, the entry reads "n.d.": below detection, most likely a poor binder, though not proof of it.
The authors averaged sequences with at least three values out of six and counted those with two or fewer as poor binders.
Values of this round are not directly comparable with the first-round values of the same sequences.
Three control strains display no target. For all light chain designs, 4% of the pairings with them gave a signal, with a median of 2.64 and one signal in twenty below 1.59, so weak values seen in few replicates may be background. For each scFv, signals with the empty controls are counted beside the result, with their mean in brackets.

CDR-L1,CDR-L2,CDR-L3,log10 Kd (nM) by replicate,"log10 Kd (nM), mean",signal with controls
KLYERGEGSQKVDRSIA,EMQTRCE,QSYQRLPLS,0.65 / 0.58 / -0.32 / 0.38 / 0.20 / 0.62,0.35,3/18 (2.02)
QVTWRAFNGDSEMNNVA,DNVHAQY,QQYSRLPFT,1.39 / 1.24 / 1.06 / 0.87 / 1.21 / 1.18,1.16,1/18 (1.94)
SIRAVGCDWQRNHSNIA,DATQIED,QQYVMLPLS,1.01 / 0.88 / 1.08 / 0.89 / 0.55 / 0.81,0.87,0/18
QLESLMGESYAYKENIA,EGEQRFS,QQYVRLPLH,0.74 / 0.85 / 1.48 / 1.11 / 1.20 / 1.30,1.11,0/18
ALSHPSDSWLEHQNSIA,DDNISLT,QQYHQLPLS,1.39 / 1.03 / 1.44 / 1.14 / 1.07 / 1.05,1.19,0/18
NMKVGLNFGGIQHQAIA,EVEKRES,QQYARLPLT,0.74 / 0.85 / 0.50 / 0.79 / 0.64 / 0.83,0.73,2/18 (2.06)
SFPSEMDQQQFQVNSVA,GEQHTAR,QQYGRLPLS,n.d. / n.d. / n.d. / n.d. / n.d. / n.d.,n.d.,0/18
KINGVEINFGEDWNAIA,EENLSNL,QQYFHLPLS,n.d. / n.d. / n.d. / 2.72 / n.d. / n.d.,2.72,1/18 (2.38)
ALQMETLGQKQKQNNIA,NQQMRTA,QQYYMLPLS,0.47 / 0.54 / 0.33 / 0.29 / 0.41 / 0.61,0.44,1/18 (3.13)
QMKASLLQGIYRQDSVA,SDDIRAL,QQYHHLPLS,1.63 / 1.31 / 1.97 / 0.90 / 1.23 / 1.32,1.39,2/18 (2.25)
KVSIFMLTMDNAWSSIA,NMAEERT,QQYQRLPLS,n.d. / n.d. / n.d. / n.d. / n.d. / 0.76,0.76,0/18
MIQQGENRDSEHYNSIA,EGHERPI,QQYYTLPLV,n.d. / 1.64 / 2.53 / n.d. / 2.49 / n.d.,2.22,0/18
NIVGRVEDNQTENNAIA,DMHCRAG,QQYSRLPLS,0.80 / 1.06 / 0.89 / 0.95 / 0.98 / 1.42,1.02,1/18 (3.47)
RFPEHLLMLESEIRSIA,NATKTME,QQYFRLPLV,0.54 / 0.16 / 0.30 / 0.27 / 0.35 / 0.43,0.34,1/18 (2.88)
KLWAYFQGLEQNMQNVA,DGSYVST,QQYHRFPLS,n.d. / n.d. / n.d. / n.d. / n.d. / 1.88,1.88,0/18
SLAMLLDQVYAYGSNIA,NAQELVV,QQYYRLPLT,n.d. / n.d. / n.d. / n.d. / 1.57 / n.d.,1.57,0/18
KLSLFSLHGDLPWSAVA,NEVVKLA,QQYFRLPIH,n.d. / 1.15 / n.d. / n.d. / n.d. / n.d.,1.15,0/18
TLMQPQKELGYAKDNIA,DGSIRLG,QQYHRLPLV,0.85 / 0.60 / 0.68 / 0.86 / 0.58 / 0.83,0.73,1/18 (2.95)
HVSSMDMTDGGIINSVA,GDKLLER,QQYMRLPLS,0.16 / 0.18 / 0.61 / 0.85 / 0.49 / 0.79,0.51,0/18
KVAQGIFDGKRNSHSIA,EVSELCT,QQYSRLPLE,1.18 / 1.41 / 1.18 / 0.77 / 0.77 / 1.29,1.10,0/18
KLGAWMYWQTEAKRAIA,QDEMRVH,QQYDRLPLM,2.13 / 1.57 / 2.57 / 1.58 / 1.47 / 2.35,1.95,1/18 (2.70)
MMLSHSLEVQNIQNAVA,EASMVYD,QQYGSLPLS,n.d. / n.d. / n.d. / n.d. / n.d. / n.d.,n.d.,0/18
SMSWAHENGDNWMNSIA,DATHLAY,QQYSRLPIT,1.18 / 1.09 / 0.90 / 0.99 / 1.04 / 0.58,0.96,1/18 (3.07)
KITQIFSPKGNSWHSVA,NANTLAH,QQYYMLPLM,1.05 / 0.89 / 0.94 / 0.71 / 0.73 / 1.00,0.89,1/18 (3.64)
QIQGKLQEHGNQKANVA,QGVESRN,QQYFRLPLT,0.23 / 1.32 / 1.97 / 1.32 / 0.93 / 1.13,1.15,2/18 (2.35)
HFDQTEQEGIQDKNSVA,QGSQVGS,QHYSKLPLS,n.d. / n.d. / n.d. / n.d. / n.d. / n.d.,n.d.,0/18
KITDHFLGLGNGRQNIA,HAMVAVE,QQYHQLPLA,1.22 / 0.47 / 0.93 / 0.45 / 0.79 / 0.68,0.76,0/18
HLKTMPGQGPQTYSSIA,HAEIRTP,QQYYRLPLM,n.d. / n.d. / n.d. / n.d. / n.d. / n.d.,n.d.,0/18
SMFEKEYEELQPENNIA,DETARMV,QQYFRLPLL,n.d. / n.d. / n.d. / n.d. / n.d. / n.d.,n.d.,0/18
QLELVQSNDTISENSVA,HAEVSGR,QQYSQLPLI,n.d. / n.d. / n.d. / n.d. / n.d. / n.d.,n.d.,1/18 (2.14)
MIKEENIGVGNYQNSIA,DGASTMA,QQYYRLPLA,0.52 / 0.35 / 0.24 / 0.09 / 0.24 / 0.33,0.30,3/18 (2.57)
QITNQTAGISNGIDSIA,EETNLTD,QQYNHLPLS,n.d. / n.d. / n.d. / n.d. / n.d. / n.d.,n.d.,1/18 (3.51)
KLGAWMYVSTEAKRAIA,QDEMRVH,QQYDRLPLM,1.15 / 2.31 / n.d. / 1.40 / 1.13 / 2.06,1.61,0/18
HMNKFMSQIGGARNNVA,GDDTLAQ,QHYHRLPLS,n.d. / n.d. / n.d. / n.d. / n.d. / n.d.,n.d.,0/18
KLPHLSFVHDREKNNVA,DLNVKCA,QQYDRLPLA,0.46 / 0.31 / 0.01 / -0.10 / -0.10 / 0.07,0.11,1/18 (1.51)
NLSMELEDAGVKDMSIA,DAELSTM,QQYMRLPLS,0.98 / 1.14 / 1.03 / 0.90 / 1.08 / 1.19,1.05,2/18 (2.48)

A selection of 3 entries from above:

CDR-L1	CDR-L2	CDR-L3	log10 Kd (nM) by replicate	log10 Kd (nM), mean	signal with controls
KLWAYFQGLEQNMQNVA	DGSYVST	QQYHRFPLS	n.d. / n.d. / n.d. / n.d. / n.d. / 1.88	1.88	0/18
KLGAWMYWQTEAKRAIA	QDEMRVH	QQYDRLPLM	2.13 / 1.57 / 2.57 / 1.58 / 1.47 / 2.35	1.95	1/18 (2.70)
QLELVQSNDTISENSVA	HAEVSGR	QQYSQLPLI	n.d. / n.d. / n.d. / n.d. / n.d. / n.d.	n.d.	1/18 (2.14)

Source: Li et al. 2023 (doi:10.1038/s41467-023-39022-2), MIT Lincoln Laboratory and A-Alpha Bio; data file from the FLAb repository.